PMC10164577 (2022)

Target: Histone H3-H4 (Saccharomyces cerevisiae)
Experiment: fluorescence polarization

- Kd: > 300 nM
B1: RPA (protein)
chain 1: SSVQLSRGDFHSIFTNKQRYDNPTGGVYQVYNTRKSDGANSNRKNLIMISDGIYHMKALLRNQAASKFQSMELQRGDIIRVIIAEPAIVRERKKYVLLVDDFELVQSRADMVNQTSTFLDNYFSEHPNETLKDEDITDSGNVANQTNASNAGVPDMLHSNSNLNANERKFANENPNSQKTRPIFAIEQLSPYQNVWTIKARVSYKGEIKTWHNQRGDGKLFNVNFLDTSGEIRATAFNDFATKFNEILQEGKVYYVSKAKLQPAKPQFTNLTHPYELNLDRDTVIEECFDESNVPKTHFNFIKLDAIQNQEVNSNVDVLGIIQTINPHFELTSRAGKKFDRRDITIVDDSGFSISVGLWNQQALDFNLPEGSVAAIKGVRVTDFGGKSLSMGFSSTLIPNPEIPEAYALKGWYDSKGRNANFITLKQEPGMGGQSAASLTKFIAQRITIARAQAENLGRSEKGDFFSVKAAISFLKVDNFAYPACSNENCNKKVLEQPDGTWRCEKCDTNNARPNWRYILTISIIDETNQLWLTLFDDQAKQLLGVDANTLMSLKEEDPNEFTKITQSIQMNEYDFRIRAREDTYNDQSRIRYTVANLHSLNYRAEADYLADELSKALLA
chain 2: MATYQPYNEYSSVTGGGFENSESRPGSGESETNTRVNTLTPVTIKQILESKQDIQDGPFVSHNQELHHVCFVGVVRNITDHTANIFLTIEDGTGQIEVRKWSEDANDLAAGNDDSSGKGYGSQVAQQFEIGGYVKVFGALKEFGGKKNIQYAVIKPIDSFNEVLTHHLEVIKCHSIASGMMKQPLESASNNNGQSLFVKDDNDTSSGSSPLQRILEFCKKQCEGKDANSFAVPIPLISQSLNLDETTVRNCCTTLTDQGFIYPTFDDNNFFAL
chain 3: MASETPRVDPTEISNVNAPVFRIIAQIKSQPTESQLILQSPTISSKNGSEVEMITLNNIRVSMNKTFEIDSWYEFVCRNNDDGELGFLILDAVLCKFKENEDLSLNGVVALQRLCKKYPEIY
